Earlier results as cited in patent US7476508B2, “Method of screening agent for improving memory and learning ability” (Astellas Pharma Inc., priority 2003, dated 2009).

Conditions: in vivo; cited from earlier work

Pregnenolone sulfate [PS, reference compound]
transferability into the brain: low transferability into the brain
